Membrane permeability of cyclic peptides

Collected by the curators of CycPeptMPDB (Li et al. 2023) from Kelly et al. 2021, doi:10.1021/jacs.0c06115.

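The data file gives no further conditions (lipid, pH, time, direction or concentration), and values from different papers need not be comparable. Other peptides of the study may be missing here. Peptides that the database sets to -10, its floor, are left out.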

PAMPA is the parallel artificial membrane permeability assay, which has no cells and reads passive diffusion.
Values are log10 P with P in cm/s, so -5 is more permeable than -7.

structure (SMILES),PAMPA (log10 cm/s)
CC(=O)N1CCC[C@H]1C(=O)N[C@@H]1C(=O)N[C@H](CC(C)C)C(=O)N[C@H](CC(C)C)C(=O)N[C@H](CC(C)C)C(=O)N(C)[C@@H](CC(C)C)C(=O)N(C)[C@@H](C)C(=O)N[C@@H](CC(C)C)C(=O)N2CCC[C@@H]2C(=O)O[C@@H]1C,-5.91
CC(=O)N1CCC[C@@H]1C(=O)N(C)[C@@H](CC(C)C)C(=O)N[C@@H]1C(=O)N[C@@H](CC(C)C)C(=O)N[C@@H](CC(C)C)C(=O)N(C)[C@H](CC(C)C)C(=O)N[C@@H](C)C(=O)N[C@@H](CC(C)C)C(=O)N2CCC[C@H]2C(=O)O[C@@H]1C,-5.94
CC(=O)N1CCC[C@H]1C(=O)N(C)[C@H](CC(C)C)C(=O)N[C@@H]1C(=O)N[C@H](CC(C)C)C(=O)N[C@H](CC(C)C)C(=O)N(C)[C@H](CC(C)C)C(=O)N[C@@H](C)C(=O)N[C@H](CC(C)C)C(=O)N2CCC[C@H]2C(=O)O[C@@H]1C,-5.69
CC(=O)N1CCC[C@H]1C(=O)N[C@@H]1C(=O)N[C@H](CC(C)C)C(=O)N(C)[C@@H](CC(C)C)C(=O)N(C)[C@@H](CC(C)C)C(=O)N(C)[C@H](CC(C)C)C(=O)N(C)[C@H](C)C(=O)N[C@@H](CC(C)C)C(=O)N2CCC[C@@H]2C(=O)O[C@@H]1C,-5.09
CC(=O)N[C@@H]1C(=O)N2CCC[C@H]2C(=O)N(C)[C@H](CC(C)C)C(=O)N[C@H](CC(C)C)C(=O)N[C@H](CC(C)C)C(=O)N[C@H](CC(C)C)C(=O)N[C@@H](C)C(=O)N[C@@H](CC(C)C)C(=O)N2CCC[C@@H]2C(=O)O[C@@H]1C,-7.36
CC(=O)N1CCC[C@H]1C(=O)N[C@@H]1C(=O)N[C@H](CC(C)C)C(=O)N[C@H](CC(C)C)C(=O)N(C)[C@H](CC(C)C)C(=O)N[C@H](CC(C)C)C(=O)N[C@H](C)C(=O)N[C@@H](CC(C)C)C(=O)N2CCC[C@@H]2C(=O)O[C@@H]1C,-6.21
CC(=O)N1CCC[C@H]1C(=O)N[C@@H]1C(=O)N(C)[C@H](CC(C)C)C(=O)N(C)[C@@H](CC(C)C)C(=O)N(C)[C@@H](CC(C)C)C(=O)N(C)[C@@H](CC(C)C)C(=O)N(C)[C@@H](C)C(=O)N[C@@H](CC(C)C)C(=O)N2CCC[C@@H]2C(=O)O[C@@H]1C,-5.07
CC(=O)N1CCC[C@H]1C(=O)N(C)[C@H](CC(C)C)C(=O)N[C@@H]1C(=O)N(C)[C@H](CC(C)C)C(=O)N[C@H](CC(C)C)C(=O)N(C)[C@@H](CC(C)C)C(=O)N(C)[C@@H](C)C(=O)N[C@H](CC(C)C)C(=O)N2CCC[C@H]2C(=O)O[C@@H]1C,-5.60
CC(=O)N1CCC[C@H]1C(=O)N(C)[C@H](CC(C)C)C(=O)N[C@@H]1C(=O)N[C@@H](CC(C)C)C(=O)N(C)[C@H](CC(C)C)C(=O)N[C@H](CC(C)C)C(=O)N(C)[C@@H](C)C(=O)N[C@H](CC(C)C)C(=O)N2CCC[C@@H]2C(=O)O[C@@H]1C,-5.92
CC(=O)N1CCC[C@H]1C(=O)N(C)[C@@H](CC(C)C)C(=O)N[C@@H]1C(=O)N(C)[C@H](CC(C)C)C(=O)N(C)[C@H](CC(C)C)C(=O)N[C@@H](CC(C)C)C(=O)N(C)[C@H](C)C(=O)N[C@H](CC(C)C)C(=O)N2CCC[C@H]2C(=O)O[C@@H]1C,-5.18
CC(=O)N[C@@H]1C(=O)N2CCC[C@H]2C(=O)N(C)[C@H](CC(C)C)C(=O)N[C@@H](CC(C)C)C(=O)N[C@H](CC(C)C)C(=O)N[C@@H](CC(C)C)C(=O)N[C@H](C)C(=O)N[C@@H](CC(C)C)C(=O)N2CCC[C@@H]2C(=O)O[C@@H]1C,-7.00
CC(=O)N1CCC[C@H]1C(=O)N(C)[C@H](CC(C)C)C(=O)N[C@@H]1C(=O)N[C@H](CC(C)C)C(=O)N[C@@H](CC(C)C)C(=O)N(C)[C@H](CC(C)C)C(=O)N[C@@H](C)C(=O)N[C@H](CC(C)C)C(=O)N2CCC[C@@H]2C(=O)O[C@@H]1C,-5.93
CC(=O)N1CCC[C@@H]1C(=O)N(C)[C@@H](CC(C)C)C(=O)N[C@@H]1C(=O)N[C@H](CC(C)C)C(=O)N[C@H](CC(C)C)C(=O)N(C)[C@H](CC(C)C)C(=O)N(C)[C@@H](C)C(=O)N[C@H](CC(C)C)C(=O)N2CCC[C@H]2C(=O)O[C@@H]1C,-5.78
CC(=O)N1CCC[C@H]1C(=O)N(C)[C@@H](CC(C)C)C(=O)N[C@@H]1C(=O)N[C@H](CC(C)C)C(=O)N(C)[C@@H](CC(C)C)C(=O)N[C@H](CC(C)C)C(=O)N[C@H](C)C(=O)N[C@H](CC(C)C)C(=O)N2CCC[C@H]2C(=O)O[C@@H]1C,-5.96
CC(=O)N[C@@H]1C(=O)N2CCC[C@H]2C(=O)N(C)[C@H](CC(C)C)C(=O)N[C@@H](CC(C)C)C(=O)N[C@@H](CC(C)C)C(=O)N[C@H](CC(C)C)C(=O)N[C@H](C)C(=O)N[C@@H](CC(C)C)C(=O)N2CCC[C@@H]2C(=O)O[C@@H]1C,-7.12
CC(=O)N1CCC[C@@H]1C(=O)N(C)[C@H](CC(C)C)C(=O)N[C@@H]1C(=O)N[C@@H](CC(C)C)C(=O)N(C)[C@@H](CC(C)C)C(=O)N[C@@H](CC(C)C)C(=O)N(C)[C@@H](C)C(=O)N[C@@H](CC(C)C)C(=O)N2CCC[C@@H]2C(=O)O[C@@H]1C,-5.46
CC(=O)N1CCC[C@H]1C(=O)N(C)[C@@H](CC(C)C)C(=O)N[C@@H]1C(=O)N(C)[C@H](CC(C)C)C(=O)N[C@H](CC(C)C)C(=O)N(C)[C@H](CC(C)C)C(=O)N(C)[C@H](C)C(=O)N[C@@H](CC(C)C)C(=O)N2CCC[C@H]2C(=O)O[C@@H]1C,-5.24
CC(=O)N[C@@H]1C(=O)N2CCC[C@H]2C(=O)N(C)[C@H](CC(C)C)C(=O)N[C@H](CC(C)C)C(=O)N[C@H](CC(C)C)C(=O)N[C@@H](CC(C)C)C(=O)N[C@@H](C)C(=O)N[C@@H](CC(C)C)C(=O)N2CCC[C@@H]2C(=O)O[C@@H]1C,-7.30
CC(=O)N1CCC[C@@H]1C(=O)N(C)[C@H](CC(C)C)C(=O)N[C@@H]1C(=O)N[C@@H](CC(C)C)C(=O)N[C@H](CC(C)C)C(=O)N[C@H](CC(C)C)C(=O)N[C@@H](C)C(=O)N[C@H](CC(C)C)C(=O)N2CCC[C@@H]2C(=O)O[C@@H]1C,-7.16
CC(=O)N1CCC[C@@H]1C(=O)N(C)[C@H](CC(C)C)C(=O)N[C@@H]1C(=O)N(C)[C@@H](CC(C)C)C(=O)N[C@@H](CC(C)C)C(=O)N(C)[C@@H](CC(C)C)C(=O)N(C)[C@H](C)C(=O)N[C@H](CC(C)C)C(=O)N2CCC[C@@H]2C(=O)O[C@@H]1C,-5.25
CC(=O)N1CCC[C@@H]1C(=O)N(C)[C@H](CC(C)C)C(=O)N[C@@H]1C(=O)N[C@H](CC(C)C)C(=O)N[C@@H](CC(C)C)C(=O)N[C@@H](CC(C)C)C(=O)N(C)[C@H](C)C(=O)N[C@@H](CC(C)C)C(=O)N2CCC[C@H]2C(=O)O[C@@H]1C,-5.92
CC(=O)N1CCC[C@H]1C(=O)N(C)[C@@H](CC(C)C)C(=O)N[C@@H]1C(=O)N[C@@H](CC(C)C)C(=O)N[C@@H](CC(C)C)C(=O)N[C@H](CC(C)C)C(=O)N(C)[C@H](C)C(=O)N[C@H](CC(C)C)C(=O)N2CCC[C@@H]2C(=O)O[C@@H]1C,-6.84